{"source": "paper PMC8310277", "about": "(Viruses, 2021)", "key": {"[1]": {"system": "replication-competent SARS-CoV-2 viruses expressing mNeonGreen", "type": "cell-based"}, "[2]": {"system": "SARS-CoV-2 spike RBD - hACE2 interaction", "experiment": "SARS-CoV-2 RBD and hACE2 binding assay", "parameters": "species or system SARS-CoV-2 / human"}}, "data": [{"smiles": "CC[C@H](C)[C@@H]1NC(=O)[C@@H]2CSSC[C@@H]3NC(=O)[C@H](Cc4ccccc4)NC(=O)[C@H](C)NC(=O)[C@H](Cc4c[nH]c5ccccc45)NC(=O)[C@H](CC(C)C)NC(=O)[C@H](CCCNC(=N)N)NC(=O)CNC(=O)[C@H](CCC(N)=O)NC(=O)[C@H](Cc4ccc(O)cc4)NC(=O)[C@H]([C@@H](C)CC)NC(=O)[C@H](CSSC[C@H](NC(=O)[C@H](Cc4ccc(O)cc4)NC(=O)[C@@H](NC(=O)[C@H](C)N)CSSC[C@@H](C(=O)O)NC3=O)C(=O)N[C@@H](CCCNC(=N)N)C(=O)N[C@@H]([C@@H](C)CC)C(=O)N3CCC[C@H]3C(=O)N[C@@H](C)C(=O)N2)NC(=O)[C@H]([C@@H](C)O)NC(=O)CNC(=O)[C@H](Cc2ccc(O)cc2)NC(=O)[C@H](CCCNC(=N)N)NC(=O)[C@H](CCCNC(=N)N)NC(=O)[C@H](CCC(=O)O)NC(=O)CNC(=O)[C@H](C)NC1=O", "note": "[HNP1]", "values": [{"measurement": "inhibition of replication-competent SARS-CoV-2 infection (in words)", "setting": "[1]", "result": "suppressed viral infection in a dose-dependent manner"}, {"measurement": "effect on hACE2 - spike RBD interaction at high concentrations (in words)", "setting": "[2]; 16.7 and 50 μg/mL", "result": "slightly promoted the interaction"}, {"measurement": "interference with interaction between spike RBD and hACE2 (in words)", "setting": "[2]; biotinylated hACE2 pre-treated with defensin 37 °C 1 h, plate-bound RBD", "result": "did not find that HNP1 interfered"}]}]}
